“Also recorded” adds a separate entry of the source.
Tested on: allo-lymphocytes
Test: Recovery of proliferation in allo-MLR with PSI-treated DC by IL-2 or anti CD28
Format: cell-based, human
Details: IL-2 2 ng/ml or anti CD28 10 μg/ml added at plating, day 6
Description: FIG. 4. Lack of recovery of proliferation response in allo-MLR. Mature DC was treated with vehicle (A) or PSI (1 μM) (B) for 4 h. After wash graded number of each treated DC and 10^5 cells of allo-lymphocytes were plated on a 96 well plate with vehicle (∘,●), 2 ng/ml. of IL-2 (□,▪) or 10 µg/ml. of anti CD28 Ab (Δ, ▴). Proliferation was determined at day 6 using ^3H-TdR uptake assay. (Each point represents mean+/−SEM from three separate experiments).
There are two broad possibilities as to the mechanism of the low proliferative response of T cells to PSI-DC. One is that these DC are not stimulatory, and the T cells are not responding for that reason. The second is that the T. cells have been actively ‘switched off’ by processes of tolerance or active immune regulation. To begin to discriminate between these possibilities, we attempted to stimulate the T cells with IL-2, or anti CD28 at concentrations (2-ng/ml. IL-2 or 10 μg/ml. anti CD28).
The IL-2 or anti CD28 was added at the same time when T cells and DC were plated.

In the case of “IL-2: cytokine added at 2 ng/ml to the MLR”, the “restoring proliferation of T cells in MLR with PSI-treated DC” value is reported as “very slight effect at restoring proliferation; also recorded: failed to stimulate”.
